Measured values from PubChem BioAssay (NCI).
Values joined by “and” are separate entries in the source; they are usually repeats but may differ in a detail not shown here. Identical values can stand only once. The list shows a part of the results, in another mix than the full data.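 Cells were grown in 96-well plates and exposed to the test compound at a single concentration for 48 hours; results are reported as percent growth, with values below 10 considered active.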 Active and inactive are the calls of the source.

Key:
Test in all cases: NCI-60 one-dose screen, 48 h (100 = growth as untreated, 0 = no growth, -100 = all killed)
Conditions in all cases: 10 µM
NCI/ADR-RES ovarian = tested on: NCI/ADR-RES ovarian
T-47D breast = tested on: T-47D breast
BT-549 breast = tested on: BT-549 breast
MDA-MB-435 melanoma = tested on: MDA-MB-435 melanoma
SW-620 colon = tested on: SW-620 colon
MCF7 breast = tested on: MCF7 breast
HCT-116 colon = tested on: HCT-116 colon
HCC-2998 colon = tested on: HCC-2998 colon
KM12 colon = tested on: KM12 colon

Measured: growth

Oc1ccc(O)c(CN(CCCl)CCCl)c1
inactive: NCI/ADR-RES ovarian 99% | T-47D breast 96.2% | BT-549 breast 103% | MDA-MB-435 melanoma 106% | SW-620 colon 89% | MCF7 breast 90% | HCT-116 colon 97.5% | HCC-2998 colon 101% | KM12 colon 99%

CC(C)NP(=O)(F)NC(C)C
inactive: NCI/ADR-RES ovarian 105% | T-47D breast 100% | BT-549 breast 115% | MDA-MB-435 melanoma 110% | SW-620 colon 105% | MCF7 breast 102% | HCT-116 colon 104% | HCC-2998 colon 101% | KM12 colon 104%

NC(=O)C1(Nc2ccccc2)CCN(Cc2ccccc2)CC1
inactive: NCI/ADR-RES ovarian 106% | T-47D breast 106% | BT-549 breast 100% | MDA-MB-435 melanoma 109% | SW-620 colon 109% | MCF7 breast 104% | HCT-116 colon 111% | HCC-2998 colon 109% | KM12 colon 107%

Oc1ccc(N(CCCl)CCCl)cc1
inactive: NCI/ADR-RES ovarian 92.4% | T-47D breast 105% | BT-549 breast 90.3% | MDA-MB-435 melanoma 117% | SW-620 colon 80% | MCF7 breast 56.7% | HCT-116 colon 78.3% | HCC-2998 colon 83.2% | KM12 colon 109%

NC(Cc1cccc(N(CCCl)CCCl)c1)C(=O)O (stereo not given)
inactive: NCI/ADR-RES ovarian 97.2% and 104% | T-47D breast 96.1% and 99.1% | BT-549 breast 101% and 99.7% | MDA-MB-435 melanoma 102% and 105% | SW-620 colon 78.1% and 78.2% | MCF7 breast 67.7% and 60.4% | HCT-116 colon 91.7% and 97.1% | HCC-2998 colon 103% and 99.9% | KM12 colon 108% and 101%

Oc1ccc(Br)cc1CN(CCCl)CCCl
inactive: NCI/ADR-RES ovarian 54.8% | T-47D breast 49.4% | BT-549 breast 65.3% | MDA-MB-435 melanoma 79.3% | SW-620 colon 60.1% | MCF7 breast 28.9% | HCT-116 colon 46.1% | HCC-2998 colon 73.3% | KM12 colon 83%

OCC#CCN(CCCl)CCCl
inactive: NCI/ADR-RES ovarian 83.5% | T-47D breast 97.2% | BT-549 breast 97.8% | MDA-MB-435 melanoma 99% | SW-620 colon 92.4% | MCF7 breast 89% | HCT-116 colon 102% | HCC-2998 colon 101% | KM12 colon 98.2%

O=c1[nH]cc(CN(CCCl)CCCl)c(=O)[nH]1
inactive: NCI/ADR-RES ovarian 105% | T-47D breast 101% | BT-549 breast 100% | MDA-MB-435 melanoma 104% | SW-620 colon 96.9% | MCF7 breast 99.4% | HCT-116 colon 102% | KM12 colon 103%

CCOC(=O)N1CCC(=O)CC1
inactive: NCI/ADR-RES ovarian 104% | T-47D breast 95.1% | BT-549 breast 99.3% | MDA-MB-435 melanoma 104% | SW-620 colon 102% | MCF7 breast 96.5% | HCT-116 colon 105% | HCC-2998 colon 115% | KM12 colon 98.4%

BrCCN(CCBr)c1ccc2c(c1)Cc1ccccc1-2
inactive: NCI/ADR-RES ovarian 42.7% | T-47D breast 42.8% | MDA-MB-435 melanoma 52.4% | SW-620 colon 41.8% | MCF7 breast 19.8% | HCT-116 colon 32.9% | HCC-2998 colon 71% | KM12 colon 54.4%

ClCCSC(SCCCl)=C(SCCCl)SCCCl
inactive: NCI/ADR-RES ovarian 75.5% | BT-549 breast 73.6% | MDA-MB-435 melanoma 102% | SW-620 colon 77.1% | MCF7 breast 47.9% | HCT-116 colon 73.6% | HCC-2998 colon 85.9% | KM12 colon 92.6%

ClCCN1[C@@H](CCl)CC[C@@H]1c1ccccc1
inactive: NCI/ADR-RES ovarian 95.7% | T-47D breast 102% | BT-549 breast 83.1% | MDA-MB-435 melanoma 99.6% | SW-620 colon 94.4% | MCF7 breast 84.3% | HCT-116 colon 96% | HCC-2998 colon 88.2% | KM12 colon 108%

Cc1ccccc1NC1(C#N)CCN(Cc2ccccc2)CC1
inactive: NCI/ADR-RES ovarian 103% | T-47D breast 98.9% | BT-549 breast 87.7% | MDA-MB-435 melanoma 110% | SW-620 colon 102% | HCT-116 colon 98.2% | HCC-2998 colon 95.7% | KM12 colon 104%

Cc1cccc(CN(CCCl)CCCl)c1
inactive: NCI/ADR-RES ovarian 95.4% | T-47D breast 87.4% | BT-549 breast 93.7% | MDA-MB-435 melanoma 105% | MCF7 breast 85.8% | HCT-116 colon 84.6% | HCC-2998 colon 95.5% | KM12 colon 103%

CC(=O)N(c1ccccc1)C1CCNCC1
inactive: NCI/ADR-RES ovarian 114% | T-47D breast 112% | MDA-MB-435 melanoma 112% | SW-620 colon 109% | MCF7 breast 92.6% | HCT-116 colon 115% | HCC-2998 colon 104% | KM12 colon 118%

Cc1ccc2oc(=O)cc(CN(CCCl)CCCl)c2c1
inactive: NCI/ADR-RES ovarian 93.2% | T-47D breast 116% | BT-549 breast 97.7% | MDA-MB-435 melanoma 100% | SW-620 colon 84.8% | MCF7 breast 75.3% | HCT-116 colon 94% | HCC-2998 colon 87.9% | KM12 colon 96.9%

COc1cc(CN(CCCl)CCBr)cc(OC)c1
inactive: NCI/ADR-RES ovarian 113% | T-47D breast 109% | BT-549 breast 102% | MDA-MB-435 melanoma 104% | SW-620 colon 104% | MCF7 breast 96.3% | HCT-116 colon 103% | HCC-2998 colon 98.7% | KM12 colon 109%

Fc1ccc(CCN(CCCl)CCCl)cc1
inactive: NCI/ADR-RES ovarian 110% | T-47D breast 94.7% | BT-549 breast 107% | MDA-MB-435 melanoma 98.5% | SW-620 colon 96.4% | MCF7 breast 90.5% | HCT-116 colon 100% | HCC-2998 colon 128% | KM12 colon 107%

c1ccc(CN2CCC(Nc3ccccc3)CC2)cc1
inactive: NCI/ADR-RES ovarian 96.1% | T-47D breast 95.7% | BT-549 breast 124% | MDA-MB-435 melanoma 102% | SW-620 colon 100% | MCF7 breast 97.7% | HCT-116 colon 113% | HCC-2998 colon 102% | KM12 colon 111%

Cc1ccc(N(CCCl)CCCl)cc1
inactive: NCI/ADR-RES ovarian 67.5% | T-47D breast 72.2% | MDA-MB-435 melanoma 85.8% | SW-620 colon 52.7% | HCT-116 colon 63.1% | HCC-2998 colon 84.6% | KM12 colon 101%

O=C(O)c1ccc(N(CCCl)CCCl)cc1
inactive: NCI/ADR-RES ovarian 109% | T-47D breast 107% | BT-549 breast 109% | MDA-MB-435 melanoma 102% | SW-620 colon 103% | MCF7 breast 99.5% | HCT-116 colon 109% | HCC-2998 colon 107% | KM12 colon 108%

ClCCN(CCCl)Cc1nc2cc(Cl)c(Cl)cc2[nH]1
inactive: T-47D breast 63.9% | BT-549 breast 74.4% | MDA-MB-435 melanoma 91.1% | SW-620 colon 58.5% | MCF7 breast 41.8% | HCT-116 colon 68.7% | KM12 colon 88.1%

Cc1ccc(C(=O)N(CCCl)CCCl)cc1
inactive: NCI/ADR-RES ovarian 108% | T-47D breast 96.6% | BT-549 breast 103% | MDA-MB-435 melanoma 98.7% | SW-620 colon 101% | MCF7 breast 88.3% | HCT-116 colon 98.6% | HCC-2998 colon 101% | KM12 colon 112%

O=C1C(=O)N(CN(CCCl)CCCl)c2ccccc21
inactive: NCI/ADR-RES ovarian 100% | T-47D breast 94.4% | BT-549 breast 102% | MDA-MB-435 melanoma 105% | SW-620 colon 97.9% | MCF7 breast 95.9% | HCT-116 colon 99.6% | HCC-2998 colon 101% | KM12 colon 106%

NC(=O)C1(Nc2ccccc2)CCNCC1
inactive: NCI/ADR-RES ovarian 103% | T-47D breast 101% | BT-549 breast 102% | MDA-MB-435 melanoma 103% | SW-620 colon 106% | MCF7 breast 98.3% | HCT-116 colon 101% | HCC-2998 colon 97.6% | KM12 colon 99.1%

CCCSP(=O)(CCl)N(CCCl)CCCl (stereo not given)
inactive: NCI/ADR-RES ovarian 102% | T-47D breast 93.6% | BT-549 breast 100% | MDA-MB-435 melanoma 101% | SW-620 colon 89.2% | MCF7 breast 87.6% | HCT-116 colon 106% | HCC-2998 colon 105% | KM12 colon 109%

Cc1cccc(NC2(C#N)CCN(Cc3ccccc3)CC2)c1
inactive: NCI/ADR-RES ovarian 113% | T-47D breast 102% | BT-549 breast 93.8% | MDA-MB-435 melanoma 106% | SW-620 colon 106% | MCF7 breast 95.7% | HCT-116 colon 102% | HCC-2998 colon 109% | KM12 colon 106%

CCOC(=O)c1ccc(N(CCCl)CCCl)cc1
inactive: NCI/ADR-RES ovarian 103% | T-47D breast 102% | BT-549 breast 103% | MDA-MB-435 melanoma 106% | SW-620 colon 104% | MCF7 breast 103% | HCT-116 colon 95.5% | HCC-2998 colon 109% | KM12 colon 111%

CCNC(=O)Cc1ccc(N(CCCl)CCCl)cc1
inactive: NCI/ADR-RES ovarian 90.4% | T-47D breast 77.5% | BT-549 breast 114% | MDA-MB-435 melanoma 92.3% | SW-620 colon 74% | MCF7 breast 45.8% | HCT-116 colon 99.1% | HCC-2998 colon 93% | KM12 colon 99.8%

CCOP(=O)(Cl)OCC
inactive: NCI/ADR-RES ovarian 105% | T-47D breast 93.5% | BT-549 breast 104% | MDA-MB-435 melanoma 108% | SW-620 colon 106% | MCF7 breast 93.1% | HCT-116 colon 102% | HCC-2998 colon 102% | KM12 colon 109%
